According to ChEMBL document CHEMBL1129852, “Peptidyl -keto thiazole as potent thrombin inhibitors” (Bioorg Med Chem Lett, 1997):

Target: Prothrombin (Homo sapiens, UniProt P00734)
Test: Inhibition of thrombin

IC50: 600 nM
Compound: CC1CNc2c(cccc2S(=O)(=O)N[C@@H](CCCNC(=N)N)C(=O)N2CCC(C)C[C@@H]2C(=O)O)C1 (single isomer, unassigned) [ARGATROBAN]
